# CycPeptMPDB entries from one study

Collected by the curators of CycPeptMPDB (Li et al. 2023) from Furukawa et al. 2016, doi:10.1021/acs.jmedchem.6b01246.

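Lipid, pH, incubation time, direction and concentration are not recorded in the data file. The list need not hold all peptides of the study. Entries at the database's floor value (log10 P of -10) are not listed.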

PAMPA measures passive passage through an artificial lipid membrane. Permeability is given as log10 of P in cm/s; higher (less negative) is more permeable.

Listed for CCCC[C@@H]1NC(=O)[C@H](CC(C)C)N(C)C(=O)CN(CC2CCCCC2)C(=O)[C@H](C)NC(=O)CN(CC)C(=O)[C@H]2CCCN2C1=O: PAMPA -5.05 (log10 cm/s).
Listed for CCCCCN1CC(=O)N[C@H](CC(C)C)C(=O)N[C@@H](CCCC)C(=O)N2CCC[C@H]2C(=O)N(CC)CC(=O)N[C@@H](C)C1=O: PAMPA -6.25 (log10 cm/s).
Listed for CCCC[C@@H]1NC(=O)[C@H](CC(C)C)NC(=O)CN(CC2CCOCC2)C(=O)[C@H](C)NC(=O)CN(CC)C(=O)[C@@H]2CCCN2C1=O: PAMPA -8.00 (log10 cm/s).
Listed for CCCC[C@@H]1NC(=O)[C@H](CC(C)C)NC(=O)CN(CC2CCCCC2)C(=O)[C@@H](Cc2ccccc2)NC(=O)CN(Cc2ccc3c(c2)OCO3)C(=O)[C@H]2CCCN2C1=O: PAMPA -5.62 (log10 cm/s).
Listed for CCCC[C@@H]1NC(=O)[C@H](CC(C)C)N(C)C(=O)CN(CC2CCOCC2)C(=O)[C@H](Cc2ccccc2)NC(=O)CN(CCCOC(C)C)C(=O)[C@H]2CCCN2C1=O: PAMPA -5.11 (log10 cm/s).
Listed for CCCC[C@@H]1NC(=O)[C@@H](CC(C)C)N(C)C(=O)CN(CC2CCOCC2)C(=O)[C@@H](C)NC(=O)CN(Cc2ccc3c(c2)OCO3)C(=O)[C@@H]2CCCN2C1=O: PAMPA -6.64 (log10 cm/s).
Listed for CCCCCN1CC(=O)N[C@@H](CC(C)C)C(=O)N[C@@H](CCCC)C(=O)N2CCC[C@H]2C(=O)N(Cc2ccc3c(c2)OCO3)CC(=O)N[C@H](Cc2ccccc2)C1=O: PAMPA -5.39 (log10 cm/s).
Listed for CCCC[C@@H]1NC(=O)[C@@H](CC(C)C)NC(=O)CN(CC2CCOCC2)C(=O)[C@H](Cc2ccccc2)NC(=O)CN(CC)C(=O)[C@@H]2CCCN2C1=O: PAMPA -6.04 (log10 cm/s).
Listed for CCCC[C@@H]1NC(=O)[C@H](CC(C)C)N(C)C(=O)CN(CC2CCCCC2)C(=O)[C@@H](C)NC(=O)CN(CCCOC(C)C)C(=O)[C@H]2CCCN2C1=O: PAMPA -5.47 (log10 cm/s).
Listed for CCCCCN1CC(=O)N(C)[C@@H](CC(C)C)C(=O)N[C@@H](CCCC)C(=O)N2CCC[C@@H]2C(=O)N(CC)CC(=O)N[C@H](C)C1=O: PAMPA -6.43 (log10 cm/s).
Listed for CCCC[C@@H]1NC(=O)[C@H](CC(C)C)NC(=O)CN(CC2CCOCC2)C(=O)[C@H](Cc2ccccc2)NC(=O)CN(CCCOC(C)C)C(=O)[C@H]2CCCN2C1=O: PAMPA -5.44 (log10 cm/s).
Listed for CCCC[C@@H]1NC(=O)[C@H](CC(C)C)N(C)C(=O)CN(CC2CCOCC2)C(=O)[C@H](Cc2ccccc2)NC(=O)CN(CCCOC(C)C)C(=O)[C@@H]2CCCN2C1=O: PAMPA -5.07 (log10 cm/s).
Listed for CCCCCN1CC(=O)N(C)[C@H](CC(C)C)C(=O)N[C@@H](CCCC)C(=O)N2CCC[C@H]2C(=O)N(CCCOC(C)C)CC(=O)N[C@H](Cc2ccccc2)C1=O: PAMPA -4.86 (log10 cm/s).
Listed for CCCC[C@@H]1NC(=O)[C@@H](CC(C)C)N(C)C(=O)CN(CC2CCCCC2)C(=O)[C@H](Cc2ccccc2)NC(=O)CN(CCCOC(C)C)C(=O)[C@H]2CCCN2C1=O: PAMPA -5.77 (log10 cm/s).
Listed for CCCC[C@@H]1NC(=O)[C@@H](CC(C)C)N(C)C(=O)CN(CC2CCCCC2)C(=O)[C@@H](Cc2ccccc2)NC(=O)CN(CCCOC(C)C)C(=O)[C@@H]2CCCN2C1=O: PAMPA -5.01 (log10 cm/s).
Listed for CCCCCN1CC(=O)N[C@H](CC(C)C)C(=O)N[C@@H](CCCC)C(=O)N2CCC[C@H]2C(=O)N(Cc2ccc3c(c2)OCO3)CC(=O)N[C@@H](Cc2ccccc2)C1=O: PAMPA -5.26 (log10 cm/s).

A selection of 2 entries from above:

| compound | PAMPA (log10 cm/s) |
|---|---|
| CCCCCN1CC(=O)N(C)[C@H](CC(C)C)C(=O)N[C@@H](CCCC)C(=O)N2CCC[C@H]2C(=O)N(CCCOC(C)C)CC(=O)N[C@H](Cc2ccccc2)C1=O | -4.86 |
| CCCCCN1CC(=O)N[C@H](CC(C)C)C(=O)N[C@@H](CCCC)C(=O)N2CCC[C@H]2C(=O)N(CC)CC(=O)N[C@@H](C)C1=O | -6.25 |